# Measurements published in patent US20020127208A1, “Method of transplantation using chemotherapy-treated allogeneic cells that enhance immune responses without graft versus host disease” (priority 2000, published 2002).
# Tested on: C1498 leukemia cell targets
substance,measurement,setting,value
9-beta-D-arabinosyl-2-fluoroadenine [Fludarabine],Reduction in cytotoxicity of CTL's,"splenocytes treated 20 μg/ml, 24hr prior to allo-stimulation, E:T 20:1, vs control culture",57%
same,Cytotoxicity of allo-primed CTL's vs non-treated control,treated with fludarabine on day 10 of an MLR,not significantly different
